Consider two compounds from PubChem BioAssay (EPA / NIEHS).

Sequences of proteins named here, by UniProt entry; tags and fusion partners are left off.
UniProt P16581, whole entry: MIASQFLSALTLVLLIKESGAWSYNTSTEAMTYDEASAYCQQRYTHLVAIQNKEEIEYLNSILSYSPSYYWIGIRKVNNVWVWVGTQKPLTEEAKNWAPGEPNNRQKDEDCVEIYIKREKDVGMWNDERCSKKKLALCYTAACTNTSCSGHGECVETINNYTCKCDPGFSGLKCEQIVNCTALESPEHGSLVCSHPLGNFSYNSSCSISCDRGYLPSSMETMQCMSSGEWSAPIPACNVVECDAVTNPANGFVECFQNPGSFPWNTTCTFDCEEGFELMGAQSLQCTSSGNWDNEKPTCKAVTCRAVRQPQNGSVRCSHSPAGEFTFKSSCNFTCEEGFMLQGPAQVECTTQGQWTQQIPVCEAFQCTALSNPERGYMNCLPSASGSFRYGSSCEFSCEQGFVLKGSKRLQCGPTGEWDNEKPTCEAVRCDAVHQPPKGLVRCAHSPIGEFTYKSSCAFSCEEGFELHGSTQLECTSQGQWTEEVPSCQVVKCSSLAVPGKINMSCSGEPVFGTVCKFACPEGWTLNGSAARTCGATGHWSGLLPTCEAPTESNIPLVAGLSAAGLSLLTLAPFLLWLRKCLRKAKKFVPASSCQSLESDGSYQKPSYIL

The nature of test [1]: BSK_hDFCGF_SRB: Viability Assessment in the BioMAP Diversity Plus: hDFCGF Assay (AID 2283061).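 Note: cells exposed to compound for 24 h before the read.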 As to conditions: primary human foreskin fibroblasts. In outline: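 Human foreskin primary fibroblasts were treated with compound and assessed 24 h after dosing. Total protein was measured by sulforhodamine B staining (0.1% SRB after 10% TCA fixation, 560 nm read) as a cytotoxicity marker, with bidirectional fitting against DMSO baseline.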

Read-out in test [2]: TIMP metallopeptidase inhibitor 1 (TIMP1), TIMP1 (gene 7076)
Briefly: BSK_hDFCGF_TIMP1: BioMAP Diversity Plus: hDFCGF Assay for TIMP metallopeptidase inhibitor 1 (TIMP1) Biomarker Activity (AID 2283062). The following applies: actives raise or lower the signal; primary human foreskin fibroblasts. In outline: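 Primary human foreskin fibroblasts in the hDFCGF system were dosed with compound for 24 h, then TIMP-1 was measured by ELISA. Activity was fitted bidirectionally relative to DMSO control; parallel SRB staining assessed cytotoxicity.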

Read-out in test [3]: Monokine induced gamma interferon (MIG), CXCL9 (gene 4283)
Briefly: BSK_hDFCGF_MIG: BioMAP Diversity Plus: hDFCGF Assay for Monokine induced gamma interferon (MIG) Biomarker Activity (AID 2283063). As to conditions: actives raise or lower the signal; primary human foreskin fibroblasts. In outline:
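ELISA read-out of MIG from primary human dermal fibroblasts 24 h post-dosing. Gain or loss of signal fitted bidirectionally, DMSO as baseline.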

Read-out in test [4]: Matrix Metallopeptidase 1 (MMP1), MMP1 (gene 4312)
The test can be described thus: BSK_hDFCGF_MMP1: BioMAP Diversity Plus: hDFCGF Assay for Matrix Metallopeptidase 1 (MMP1) Biomarker Activity (AID 2283064). As to conditions: actives raise or lower the signal; primary human foreskin fibroblasts. In outline: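 Primary human foreskin fibroblasts exposed to chemicals for 24 h; MMP1 measured by ELISA. Cytotoxicity tracked by SRB staining in parallel cultures; bidirectional fit relative to DMSO.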

Read-out in test [5]: Vascular cell adhesion molecule 1 (VCAM1), VCAM1 (gene 7412)
Briefly: BSK_hDFCGF_VCAM1: BioMAP Diversity Plus: hDFCGF Assay for Vascular cell adhesion molecule 1 (VCAM1) Biomarker Activity (AID 2283065). As to conditions: actives raise or lower the signal; primary human foreskin fibroblasts. In outline:
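Primary human foreskin fibroblasts (hDFCGF system) were dosed with chemical and VCAM-1 was measured by ELISA 24 h later. Bidirectional curve fitting used DMSO as negative control and activity baseline.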

Read-out in test [6]: Plasminogen activator inhibitor-1 (PAI1), SERPINE1 (gene 5054)
The test can be described thus: BSK_hDFCGF_PAI1: BioMAP Diversity Plus: hDFCGF Assay for Plasminogen activator inhibitor-1 (PAI1) Biomarker Activity (AID 2283066). As to conditions: actives raise or lower the signal; primary human foreskin fibroblasts. In outline:
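PAI-1 levels, determined by ELISA, served as the endpoint in human foreskin fibroblast cultures exposed to compound for 24 h, with DMSO as baseline.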

Read-out in test [7]: Intercellular Adhesion Molecule 1 (ICAM1), ICAM1 (gene 3383)
Briefly: BSK_KF3CT_ICAM1: BioMAP Diversity Plus: KF3CT Assay for Intercellular Adhesion Molecule 1 (ICAM1) Biomarker Activity (AID 2283067). The following applies: actives raise or lower the signal; primary human keratinocytes with fibroblasts. In outline: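 Human keratinocyte plus foreskin fibroblast primary co-culture was exposed to chemical for 24 h. ICAM-1 was then quantified by ELISA, and the data were fit bidirectionally against DMSO as the negative control and baseline.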

Read-out in test [8]: Interferon-gamma inducible Protein 10 (IP10), CXCL10 (gene 3627)
Briefly: BSK_KF3CT_IP10: BioMAP Diversity Plus: KF3CT Assay for Interferon-gamma inducible Protein 10 (IP10) Biomarker Activity (AID 2283068). As to conditions: actives raise or lower the signal; primary human keratinocytes with fibroblasts. In outline:
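ELISA read-out of IP-10 after 24 h chemical dosing of human skin primary co-culture (keratinocytes, foreskin fibroblasts). Gain or loss of signal relative to DMSO, bidirectional curve fit.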

A short description of test [9]: BSK_KF3CT_SRB: Viability Assessment in the BioMAP Diversity Plus: KF3CT Assay (AID 2283069).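 Note: fitted for both signal gain and loss against DMSO baseline.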 The following applies: primary human keratinocytes with fibroblasts. The method in brief: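 Human keratinocyte and foreskin fibroblast co-culture exposed to chemical for 24 h. Total protein measured in parallel cultures by 0.1% sulforhodamine B staining after 10% TCA fixation, read at 560 nm; bidirectional fit relative to DMSO.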

Read-out in test [10]: Interleukin-1 alpha (IL1a), IL1A (gene 3552)
The test can be described thus: BSK_KF3CT_IL1a: BioMAP Diversity Plus: KF3CT Assay for Interleukin-1 alpha (IL1a) Biomarker Activity (AID 2283070). As to conditions: actives raise or lower the signal; primary human keratinocytes with fibroblasts. In outline:
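Primary human keratinocyte plus foreskin fibroblast co-culture, dosed and measured at 24 h in 96-well plates. IL-1a level quantified by ELISA; bidirectional fit relative to DMSO.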

Read-out in test [11]: TIMP metallopeptidase inhibitor 2 (TIMP2), TIMP2 (gene 7077)
Briefly: BSK_KF3CT_TIMP2: BioMAP Diversity Plus: KF3CT Assay for TIMP metallopeptidase inhibitor 2 (TIMP2) Biomarker Activity (AID 2283071). The following applies: actives raise or lower the signal; primary human keratinocytes with fibroblasts. In outline: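 Keratinocyte–fibroblast co-culture, 24 h exposure; TIMP-2 ELISA, DMSO-normalised bidirectional fit. Parallel SRB (0.1%, TCA-fixed, 560 nm) total-protein staining gauges cytotoxicity.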

Read-out in test [12]: Transforming growth factor beta 1 (TGFb1), TGFB1 (gene 7040)
The test can be described thus: BSK_KF3CT_TGFb1: BioMAP Diversity Plus: KF3CT Assay for Transforming growth factor beta 1 (TGFb1) Biomarker Activity (AID 2283072). As to conditions: actives raise or lower the signal; primary human keratinocytes with fibroblasts. In outline: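 Signal changes in either direction, relative to DMSO, define activity here. TGF-b1 is read by ELISA from a human keratinocyte-fibroblast co-culture 24 h post-dose.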

Read-out in test [13]: C-C motif chemokine 2 (Homo sapiens) (UniProt P13500)
Briefly: BSK_KF3CT_MCP1: BioMAP Diversity Plus: KF3CT Assay for Monocyte Chemoattractant Protein 1 (MCP1/CCL2) Biomarker Activity (AID 2283073). The following applies: actives raise or lower the signal; primary human keratinocytes with fibroblasts. In outline:
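Human keratinocyte plus foreskin fibroblast primary co-culture exposed to chemical for 24 h. MCP-1 levels measured by ELISA. Bidirectional curve fitting relative to DMSO negative control as baseline.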

Read-out in test [14]: Matrix Metallopeptidase 9 (MMP9), MMP9 (gene 4318)
Briefly: BSK_KF3CT_MMP9: BioMAP Diversity Plus: KF3CT Assay for Matrix Metallopeptidase 9 (MMP9) Biomarker Activity (AID 2283074). As to conditions: actives raise or lower the signal; primary human keratinocytes with fibroblasts. The method in brief: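 Human keratinocyte and foreskin fibroblast co-culture exposed to chemicals for 24 h; MMP9 biomarker measured by ELISA, bidirectional fitting relative to DMSO; cytotoxicity tracked by SRB total protein staining in parallel cultures.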

Read-out in test [15]: urokinase plasminogen activator (uPA), PLAU (gene 5328)
The test can be described thus: BSK_KF3CT_uPA: BioMAP Diversity Plus: KF3CT Assay for urokinase plasminogen activator (uPA) Biomarker Activity (AID 2283075). As to conditions: actives raise or lower the signal; primary human keratinocytes with fibroblasts. In outline: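 Primary human keratinocyte/foreskin fibroblast co-culture exposed to chemical; uPA measured by ELISA at 24 h. Bidirectional fit versus DMSO, with parallel SRB total-protein staining for cytotoxicity.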

Read-out in the next test: CD40, CD40 (gene 958)
The test can be described thus: BSK_LPS_CD40: BioMAP Diversity Plus: LPS Assay for CD40 Biomarker Activity (AID 2283076). The following applies: actives raise or lower the signal; primary human HUVEC with PBMC. In outline: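 Primary human umbilical vein endothelial cells co-cultured with peripheral blood mononuclear cells, LPS-stimulated, were dosed with chemical and read 24 h later. CD40 levels were measured by ELISA and fitted bidirectionally against DMSO as negative control and baseline.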

Read-out in test [16]: E-selectin (Homo sapiens) (UniProt P16581)
The test can be described thus: BSK_LPS_Eselectin: BioMAP Diversity Plus: LPS Assay for Eselectin Biomarker Activity (AID 2283077). As to conditions: actives raise or lower the signal; primary human HUVEC with PBMC. In outline: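 Human umbilical vein endothelial cells co-cultured with peripheral blood mononuclear cells under LPS stimulation; E-selectin measured by ELISA 24 h after chemical dosing. Activity fitted bidirectionally against DMSO as negative control and baseline.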

Read-out in test [17]: Interleukin-8 (IL8), CXCL8 (gene 3576)
Briefly: BSK_LPS_IL8: BioMAP Diversity Plus: LPS Assay for Interleukin-8 (IL8) Biomarker Activity (AID 2283078). As to conditions: actives raise or lower the signal; primary human HUVEC with PBMC. In outline: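 Human umbilical vein endothelial cells co-cultured with PBMC were stimulated with LPS; IL-8 levels were measured by ELISA 24 h after chemical dosing. Activity was fitted bidirectionally against DMSO as negative control and baseline.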

Test [18] can be described thus: BSK_LPS_SRB: Viability Assessment in the BioMAP Diversity Plus: LPS Assay (AID 2283079).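 Note: total protein by sulforhodamine B absorbance as a cytotoxicity measure; measured one day after compound addition; fitted in both directions against DMSO so loss or gain of signal counts.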 The following applies: primary human HUVEC with PBMC. In outline:
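Human umbilical vein endothelial cells co-cultured with PBMC (LPS system) were dosed for 24 h. Total protein was stained with 0.1% sulforhodamine B after 10% TCA fixation, read at 560 nm, and fitted bidirectionally against DMSO baseline.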

Read-out in test [19]: Interleukin-1 alpha (IL1a), IL1A (gene 3552)
The test can be described thus: BSK_LPS_IL1a: BioMAP Diversity Plus: LPS Assay for Interleukin-1 alpha (IL1a) Biomarker Activity (AID 2283080). As to conditions: actives raise or lower the signal; primary human HUVEC with PBMC. In outline: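 Human umbilical vein endothelial cells co-cultured with peripheral blood mononuclear cells were LPS-stimulated and exposed to test chemicals for 24 h. IL-1 alpha was quantified by ELISA, with bidirectional curve fitting against DMSO as the negative control and baseline.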

The entries are a selection whose mix differs from that of the whole data set. The source made the active and inactive calls. Rule for the calls: active = hit-call score of the fitted dose curve at least 0.9, where 1 is the maximum; inactive = score below 0.9.

One may read the AC50 as the midpoint of the concentration-response curve, whichever way the signal moves. Turning to `O=[N+]([O-])c1ccccc1[N+](=O)[O-]`, the outcome in test [1], in test [2], in test [4], in test [5], in test [7] and in test [8] was inactive. In addition, the outcome in [9], in test [10], in test [11], in [12], in [13] and in test [14] was inactive. Besides, the outcome is “inactive” in test [15]; “inactive” with CD40, CD40 (gene 958); “inactive” in test [16]; “inactive” in [17]; “inactive” in test [18]. For the same compound, the AC50 in test [3] was active: 7.37 µM; in [6], active: 9.74 µM; in [19] it was active: 24.8 µM.
Turning to `CC(C)OP(OC(C)C)OC(C)C`, the outcome in test [1], in test [2], in [3], in test [4], in [5] and in test [6] was inactive. Besides, the outcome in test [7], in test [8], in [9], in test [10], in test [11] and in test [12] was inactive. For the same compound, the outcome in test [13] is “inactive”; in test [14], “inactive”; in test [15], “inactive”; with CD40, CD40 (gene 958), “inactive”; in test [16], “inactive”; in [17] it was “inactive”. The result in [18] was inactive. Moreover, the half-maximal activity concentration (AC50) in [19] was active: 1.61 µM.
